Here are results for two substances from patent publication US7163959B2, “Prostagladin derivatives for the treatment of glaucoma or ocular hypertension” (priority 1990, dated 2007).

In one data set the test system is rabbit eye. As to the kind of experiment: Conjunctival hyperemia after topical application in rabbits. The data set is classed as in vivo. As to conditions: for Conjunctival hyperemia, in words: topical (Table IV); for Degree of hyperemia: topical, conjunctival hyperemia scale 0 to 4, dose 0.5 μg, PGF2α-IE 0.1 μg. The method, then:
Conjunctival hyperemia after topical application of the test substances was evaluated in rabbits. […] Conjunctival hyperemia was evaluated on a scale from 0 to 4, 0 indicating complete absence of any hyperemia, and 4 indicating marked hyperemia with conjunctival chemosis.

Another data set deals with cat eye. The experiment in a line: Ocular discomfort (irritation) after topical application in cats. The conditions noted are these: topical (Table III).

For “19-phenyl-20-nor-PGF2α-isopropylester [Substance 20]”, in the data set on rabbit eye, the “Conjunctival hyperemia, in words” value is recorded as “very little conjunctival hyperemia” and the Degree of hyperemia stood at 0.2 ± 0.2. Moreover, the “Ocular irritation (discomfort), in words” value in the data set on cat eye is “no or very little irritating effect”.

Regarding “18-phenyl-19,20-dinor-PGF2α-isopropylester [Substance 10]”, in the data set on rabbit eye, the “Conjunctival hyperemia, in words” value is given as “very little conjunctival hyperemia” and the Degree of hyperemia turned out to be 0.3 ± 0.2. The “Ocular irritation (discomfort), in words” value in the data set on cat eye is recorded as “no or very little irritating effect”.
